Nrf2 block: inhibitors of Nrf2 signaling; A549 ARE-Fluc reporter, luciferase luminescence, 18-24 h; Potency, µM (series often up to 46 µM), without a hit: top-dose activity change, negative = inhibition, hits mostly inhibitors; 2.1% of 360,000 active; AID 504444; also: % is scaled to controls: 0 for no effect and ±100 for the full control effect; nearly all actives have a fitted effect of over 60% in size
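Reporter: ARE-Fluc in A549. Exposure: 18-24 h, 37 °C, 5% CO2, 5% FBS OPTI-MEM. Readouts: fluorescent cytotoxicity (CellTiter-Fluor), then luminescent Nrf2 signal after BugLite.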
A549 tox: kills or reduces viability of A549 cells in Nrf2 counter-screen. Potency, µM (series often up to 46 µM), without a hit: top-dose activity change, negative = cytotoxicity, usual class: inhibitors. A549 ARE-Fluc cells, CellTiter-Fluor viability, 18-24 h. AID 504648. 0.16% of 390,000 active; also: % is scaled to controls: 0 for no effect and ±100 for the full control effect
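A549 ARE-Fluc cells in 5% FBS OPTI-MEM, 5000 cells/well, rested 2 h then exposed to compounds in concentration-response for 18-24 h at 37 °C. Viability by CellTiter-Fluor fluorescence (Ex 405/Em 525) after 30 min; luciferase luminescence (BugLite, 15 min, RT) read afterwards.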
Rango complex inh: Rango-importin beta binding inhibition; Q14974; Rango CFP/YFP FRET sensor + importin beta, 45 min; Potency, µM (top dose mostly 92.2 µM), inactives show top-dose inhibition of complex formation; 0.031% of 340,000 active; AID 540263; calls by dose curve;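 also: 0% = DMSO wells and 100% = buffer wells lacking importin beta; nearly all actives have a fitted effect of over 15% in size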
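Inhibition scored from the CFP 486 nm/YFP 530 nm FRET ratio 45 min after adding 0.125 microM importin beta to 50 nM Rango biosensor preincubated 5 min with compound (room temperature, PBS with DTT, Tween-20, BSA). No-importin wells as positive control.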
Nrf2 activator: Nrf2 pathway activation; Potency, µM (highest dose often 46.1 µM), for inactives: at the top dose activation, actives largely listed as activators; 0.31% of 410,000 active; AREc32 ARE-luciferase reporter (MCF7-derived line), luminescence, 24 h; also: % of control where 0% means no effect; nearly all actives have a fitted effect of over 65% in size
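AREc32 cells carrying an ARE-driven firefly luciferase reporter were seeded at 1000 cells/well in OPTI-MEM with 5% FBS, then exposed to compound for 24 hr at 37 deg C. Luminescence was read with Steady-Glo after 30 min at RT.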
Rango dissoc inh: inhibition of RanGTP-driven Rango-importin beta dissociation; Potency, µM (top dose mostly 46.1 µM), for inactives: top-dose activity change, negative = inhibition; Biochemical FRET Rango-importin beta, RanGTP-induced dissociation; 0.071% of 340,000 active; calls by dose curve; also: % of control where 0% means no effect; nearly all actives have a fitted effect of over 45% in size
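Rango (0.1 uM)–importin beta (0.25 uM) complex; RanGTP-RCC1 trigger; 45 min RT; CFP/YFP FRET read.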
* = called active by the depositor; ? = inconclusive; / = no result given. Compounds with a hit are over-represented: about 2.3% of the library has one in this group of screens. Unless noted, calls follow the shape of the dose curve; as a rule, active = well fitted curve in the direction sought with a large enough effect; inconclusive = small, poorly fitted or top-dose-only effect, or another doubt; inactive = no such curve, though single readings can be large; an effect the other way counts as inactive or inconclusive. Potency is read from the fitted curve at half-maximal effect.

[1] C=CCNC(=O)c1onc(CSc2cccc(C)c2)c1C(=O)O
[2] COc1cccc(CC(=O)n2nc(N)c3cc4ccc(OC)cc4nc32)c1
[3] COc1ccc2cc3c(N)nn(C(=O)Cc4c[nH]c5ccccc45)c3nc2c1
[4] COc1ccc2cc3c(N)nn(C(=O)c4ccc(F)cc4)c3nc2c1
[5] CC(NC(=O)c1ccc(Br)s1)c1ccncc1 (centres undefined)
[6] CC(=O)c1cc2c(C)c(C(=O)c3ccccc3)oc2cc1O
[7] Cc1ccc(-n2ncc3c(SCc4ccccn4)ncnc32)c(C)c1
[8] Fc1ccc(N/N=C2/CC(c3ccccc3)Oc3ccccc32)c(F)c1 (centres undefined)

assay / compound	1	2	3	4	5	6	7	8
Nrf2 block	6%	-25%	16µM*	5.8µM*	19%	26%	?	-1%
A549 tox	1%	-4%	-2%	-26%	4%	2%	5%	12%
Rango complex inh	-3%	4%	-4%	2%	2%	6.5µM*	7%	-2%
Nrf2 activator	-1%	0%	-4%	0%	0%	3%	2%	13µM*
Rango dissoc inh	0%	-7%	-9%	4%	12%	?	21%	9%

[9] CC(=O)Nc1ccc(S(=O)(=O)NC2(C(F)(F)F)NC(=O)N(CCc3ccc(F)cc3)C2=O)cc1 (centres undefined)
[10] Clc1c(-c2ccccc2)nc2ccccn12
[11] Cc1c(-c2ccc(Br)cc2)nc2ccccn12
[12] CS(=O)(=O)n1nc(OC(=O)c2cccc3ccccc23)cc1N
[13] COc1ccccc1C(=O)Oc1cc(N)n(S(=O)(=O)c2ccccc2)n1
[14] Cc1ccccc1C(=O)Oc1cc(N)n(S(=O)(=O)c2ccccc2)n1
[15] COc1cccc(NC(=O)c2ccc3nc(C)sc3c2)c1
[16] N=c1ccn2c(n1)OC1C(O)C(CO)OC12 (centres undefined)

assay / compound	9	10	11	12	13	14	15	16
Nrf2 block	?	?	?	-6%	9%	7.3µM*	?	0.18µM*
A549 tox	11%	-1%	6%	-6%	1%	-3%	3%	0%
Rango complex inh	/	0%	1%	1%	3%	-3%	-1%	-1%
Nrf2 activator	0%	11µM*	4µM*	14µM*	1%	-1%	0%	0%
Rango dissoc inh	/	0%	-15%	-9%	28%	-14%	-2%	-17%

Quoted at random: two entries already listed, in no set order.
[12] CS(=O)(=O)n1nc(OC(=O)c2cccc3ccccc23)cc1N
[14] Cc1ccccc1C(=O)Oc1cc(N)n(S(=O)(=O)c2ccccc2)n1

assay / compound	12	14
Nrf2 block	-6%	7.3µM*
A549 tox	-6%	-3%
Rango complex inh	1%	-3%
Nrf2 activator	14µM*	-1%
Rango dissoc inh	-9%	-14%

(cont.)
[17] O=C1c2ccccc2C(=O)N1c1cccc(Cl)c1
[18] CCC(=O)Nc1ccc(NC(=O)CSc2nc3cc4c(cc3cc2C)CCC4)cc1
[19] Cn1c(SCc2ccccc2)nc2ccsc2c1=O
[20] Nc1ccc(S(=O)(=O)N2CCCN(S(=O)(=O)c3ccc4c(c3)OCCO4)CC2)cc1
[21] O=C1c2cccc([N+](=O)[O-])c2C(=O)N1CCO
[22] O=C1c2cccc3c(Nc4ccccc4Cl)c([N+](=O)[O-])cc(c23)C(=O)N1CCO
[23] COc1ccc(N(CC(C)C)S(=O)(=O)c2nnc(NC(=O)c3cccs3)s2)cc1
[24] CCN(c1ccc(C)cc1)S(=O)(=O)c1nnc(NC(=O)c2cccs2)s1

assay / compound	17	18	19	20	21	22	23	24
Nrf2 block	5%	23µM*	16µM*	-8%	5%	13µM*	21µM*	?
A549 tox	-2%	?	-4%	-14%	-1%	/	-14%	-3%
Rango complex inh	/	2%	0%	/	-8%	5%	/	/
Nrf2 activator	/	-1%	13µM*	/	-1%	7%	1%	7%
Rango dissoc inh	/	-7%	0%	/	-4%	20%	/	/

[25] Cc1ccc(COc2ccc(Br)cc2/C=N/O)cc1
[26] O/N=C/c1cc(Br)ccc1OCc1ccc(F)cc1
[27] COC(=O)c1ccc(/C=C/c2c(-c3ccsc3)sc3ccccc23)cc1
[28] Cc1ccc(CNC(=O)c2ccc3c(=O)c(O)c(-c4ccc(C)cc4)[nH]c3c2)cc1
[29] CCC(C)n1c(SCC(=O)NC2CCS(=O)(=O)C2)nc2ccccc2c1=O (centres undefined)
[30] COc1ccc(CNc2nc3ccc(C)cc3s2)c(OC)c1OC

assay / compound	25	26	27	28	29	30
Nrf2 block	9%	?	12%	21µM*	-7%	11%
A549 tox	-22%	-19%	4%	?	-2%	1%
Rango complex inh	3%	?	0%	?	6%	1%
Nrf2 activator	4%	0%	14%	7%	0%	3%
Rango dissoc inh	17%	16µM*	-6%	2%	3%	-8%

Screening data deposited in PubChem BioAssay by National Center for Advancing Translational Sciences (NCATS).
